The record followed here is patent US20230130766A1 (SALK INSTITUTE FOR BIOLOGICAL STUDIES, priority 2020, published 2023).

In the assay the target is T1, ULK1 (Homo sapiens, UniProt O75385).
T1 sequence (O75385 1-1050): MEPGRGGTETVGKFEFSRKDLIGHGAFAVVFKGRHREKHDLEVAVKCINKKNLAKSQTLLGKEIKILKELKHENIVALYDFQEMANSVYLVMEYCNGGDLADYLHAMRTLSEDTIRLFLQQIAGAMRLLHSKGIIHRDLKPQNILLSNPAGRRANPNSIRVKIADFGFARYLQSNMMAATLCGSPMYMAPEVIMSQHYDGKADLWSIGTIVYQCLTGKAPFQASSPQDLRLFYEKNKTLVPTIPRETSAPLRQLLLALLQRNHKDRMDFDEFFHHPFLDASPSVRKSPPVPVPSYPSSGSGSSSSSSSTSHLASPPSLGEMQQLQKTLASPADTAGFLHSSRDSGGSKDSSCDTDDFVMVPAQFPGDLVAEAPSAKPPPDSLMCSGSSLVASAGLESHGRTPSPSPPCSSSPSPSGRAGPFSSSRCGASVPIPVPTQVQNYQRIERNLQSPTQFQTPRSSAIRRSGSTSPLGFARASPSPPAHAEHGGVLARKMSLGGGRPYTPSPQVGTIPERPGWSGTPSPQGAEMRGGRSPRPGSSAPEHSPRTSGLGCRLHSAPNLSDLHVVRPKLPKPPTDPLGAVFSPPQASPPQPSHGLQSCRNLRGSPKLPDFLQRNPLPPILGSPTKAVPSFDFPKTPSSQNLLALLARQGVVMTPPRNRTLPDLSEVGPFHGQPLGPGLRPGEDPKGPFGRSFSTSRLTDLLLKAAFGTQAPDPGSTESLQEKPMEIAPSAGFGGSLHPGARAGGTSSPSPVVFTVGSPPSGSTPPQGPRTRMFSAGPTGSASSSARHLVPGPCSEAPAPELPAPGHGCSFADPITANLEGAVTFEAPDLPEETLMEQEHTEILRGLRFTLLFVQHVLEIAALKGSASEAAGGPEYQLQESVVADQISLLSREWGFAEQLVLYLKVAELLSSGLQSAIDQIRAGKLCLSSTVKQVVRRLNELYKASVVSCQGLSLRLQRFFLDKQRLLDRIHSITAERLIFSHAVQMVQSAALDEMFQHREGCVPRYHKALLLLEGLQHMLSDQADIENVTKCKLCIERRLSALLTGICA
In words: ULK1 inhibition assay. To be noted: * = tested as a mixture of regioisomers. The assay is classed as biochemical.
With `O=C1CCc2cc(Nc3ncc(C(F)(F)F)c(NCC(F)(F)F)n3)ccc2N1` [Compound 222], the 50% inhibitory concentration (IC50) is below 200 nM.

For the compound `CS(=O)(=O)Nc1nc(Nc2ccc3c(c2)CCC(=O)N3)ncc1C(F)(F)F` [Compound 226], the IC50 was above 2000 nM.

In the case of `Nc1n[nH]c(Nc2nc(Nc3ccc4c(c3)CCC(=O)N4)ncc2C(F)(F)F)n1` [Compound 243], the IC50 is 200 to 2000 nM.

Regarding `FC(F)(F)c1cnc(Nc2ccc3[nH]ncc3c2)nc1NC1CC1` [Compound 195], the IC50 is below 200 nM.

As to `Oc1ccccc1Nc1ncc(C(F)(F)F)c(NC2CC2)n1` [Compound 255], the IC50 is below 200 nM.

Regarding `FC(F)(F)c1cnc(Nc2ccc3nccnc3c2)nc1NC1CC1` [Compound 305], the IC50 was below 200 nM.

Regarding `FC(F)(F)c1cnc(Nc2ccc3nc[nH]c3c2)nc1NC1CC1` [Compound 211], the IC50 is below 200 nM.

A word on the IC50: it is the point on the concentration scale where inhibition reaches its midpoint.
